In patent publication US20250171454A1, “HETEROBIFUNCTIONAL PYRIDINYLMETHYL AMINOPURINE AND RELATED COMPOUNDS AND THEIR USE IN NSD2 DEGRADATION AND TREATING MEDICAL CONDITIONS” (K36 Therapeutics, Inc., priority 2023, published 2025) one finds IC50 data, which are given here for one compound.

Protein sequences, listed by entry. Tags and fused reporters are not part of them. Residues count along the entry.
UniProt O96028, 2-1365 limits assumed: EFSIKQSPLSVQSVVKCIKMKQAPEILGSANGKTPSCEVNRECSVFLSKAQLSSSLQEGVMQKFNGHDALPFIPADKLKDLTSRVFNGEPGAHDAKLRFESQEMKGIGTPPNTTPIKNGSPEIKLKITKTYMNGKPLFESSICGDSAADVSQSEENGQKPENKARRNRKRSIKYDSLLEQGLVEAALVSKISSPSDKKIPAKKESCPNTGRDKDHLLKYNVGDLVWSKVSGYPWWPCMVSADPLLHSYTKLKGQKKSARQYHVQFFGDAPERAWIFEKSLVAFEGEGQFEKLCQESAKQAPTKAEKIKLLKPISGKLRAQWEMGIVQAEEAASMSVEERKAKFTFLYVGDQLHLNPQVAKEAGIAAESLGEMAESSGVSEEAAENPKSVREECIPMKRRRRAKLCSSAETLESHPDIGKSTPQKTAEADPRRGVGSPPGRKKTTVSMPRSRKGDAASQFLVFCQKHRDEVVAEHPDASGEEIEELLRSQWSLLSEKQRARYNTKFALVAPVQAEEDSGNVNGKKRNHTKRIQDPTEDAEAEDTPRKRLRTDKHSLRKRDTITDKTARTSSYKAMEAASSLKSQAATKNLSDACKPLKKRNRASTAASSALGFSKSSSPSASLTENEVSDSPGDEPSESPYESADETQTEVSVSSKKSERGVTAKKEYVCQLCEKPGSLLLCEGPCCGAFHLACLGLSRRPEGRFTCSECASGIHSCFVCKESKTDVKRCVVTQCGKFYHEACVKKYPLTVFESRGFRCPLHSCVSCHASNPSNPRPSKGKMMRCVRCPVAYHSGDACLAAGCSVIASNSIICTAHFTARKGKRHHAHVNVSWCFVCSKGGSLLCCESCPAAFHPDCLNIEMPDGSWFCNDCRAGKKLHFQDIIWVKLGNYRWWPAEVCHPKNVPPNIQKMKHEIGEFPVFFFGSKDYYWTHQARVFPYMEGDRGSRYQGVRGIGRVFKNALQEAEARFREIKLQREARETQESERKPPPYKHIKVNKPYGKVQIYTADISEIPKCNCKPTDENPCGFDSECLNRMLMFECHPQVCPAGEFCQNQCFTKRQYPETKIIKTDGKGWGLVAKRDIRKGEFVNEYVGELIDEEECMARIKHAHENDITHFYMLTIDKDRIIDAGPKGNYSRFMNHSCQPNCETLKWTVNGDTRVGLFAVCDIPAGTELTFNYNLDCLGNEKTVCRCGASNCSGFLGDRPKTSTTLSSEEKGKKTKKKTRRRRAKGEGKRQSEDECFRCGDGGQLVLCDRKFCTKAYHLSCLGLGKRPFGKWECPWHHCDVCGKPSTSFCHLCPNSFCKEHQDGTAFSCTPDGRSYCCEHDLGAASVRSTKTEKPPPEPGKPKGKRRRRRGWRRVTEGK

The target of this test is recombinant human NSD2 (amino acids 2-end) with N-terminal His tag (Homo sapiens (Human), UniProt O96028). The test is described as follows: NSD2 inhibitory activity, modified RBC HotSpot HMT Assay. The format is biochemical. The method, then:
Exemplary compounds were tested for NSD2 inhibitory activity using a modified RBC HotSpot HMT Assay.
A reaction mixture was prepared by adding oligonucleosomes from chicken (0.05 mg/mL) to freshly prepared reaction buffer containing 50 mM Tris-HCl (pH 8.5), 50 mM NaCl, 5 mM MgCl2, 0.01% Brij35, 1 mM DTT, and 1% DMSO followed by the addition of recombinant human NSD2 (amino acids 2-end) with N-terminal His tag (2 nM; GenBank Accession No. NM_001042424; MW=155.5 kDa; expressed in Sf9 insect cells) and gentle mixing. The test compounds were diluted in DMSO (to 10 mM), and added to the reaction mixture in nanoliter amounts by using Acoustic Technology (Echo 550, LabCyte Inc. Sunnyvale, CA) and incubated for 20 minutes at room temperature. […] The reaction mixture was delivered to filter paper, and the methylated substrate was quantified by scintillation counting.
Data analysis was performed using Excel and GraphPad Prism software for IC50 curve fits. For additional information on the histone methyltransferase assay, see, for example, Horiuchi K Y, et al., “Assay Development for Histone Methyltransferases,” Assay Drug Dev Technol.

Structures are written as SMILES. A value given as a limit tells only on which side of the number the result lay.

In the case of `Nc1ncnc2c1ncn2[C@@H]1O[C@H](CSCC[C@H](N)C(=O)O)[C@@H](O)[C@H]1O` [SAH, S-(5′-adenosyl)-L-homocysteine, reference compound], the half-inhibitory concentration (IC50) is above 1 µM.

As usually defined, the IC50 is the concentration needed to halve the response being measured.
